Where “and” joins values, the source holds several entries; their conditions need not be identical. Identical values can stand only once.
Experiments:
BME26 embryonic cells = assay: MTT viability assay on BME26 embryonic cells; assay type: cell-based, Rhipicephalus microplus
[1] = tested on: Rhipicephalus microplus partially engorged female ticks; assay: Injection of inhibitor into partially engorged females during artificial capillary feeding
[2] = tested on: Rhipicephalus microplus fully engorged females; assay: Adults immersion test
[3] = target: Homo sapiens TIM (HsTIM, HmTIM [sic] in Table 1) (Homo sapiens, UniProt P60174); assay: Human TIM inhibition (selectivity); assay type: biochemical

The chains behind the UniProt entries cited, without tags or fusion partners.
UniProt P60174, whole entry, looked up: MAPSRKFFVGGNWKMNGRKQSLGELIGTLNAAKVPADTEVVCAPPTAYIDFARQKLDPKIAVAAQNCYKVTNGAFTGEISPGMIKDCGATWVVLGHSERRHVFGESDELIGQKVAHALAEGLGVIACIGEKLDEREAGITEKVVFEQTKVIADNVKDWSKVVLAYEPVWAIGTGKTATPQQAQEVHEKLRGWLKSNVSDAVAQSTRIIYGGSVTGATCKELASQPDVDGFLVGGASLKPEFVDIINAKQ

O=[N+]([O-])c1cccc2no[n+]([O-])c12
cell viability at 100 µM (BME26 embryonic cells; 24 h, 100 µM): 20% | IC50 (BME26 embryonic cells; read-out: IC50 in BME26 cells (In vitro anti-R. microplus), 24 h): 38 µM and 30 µM | Eclosion ([1]; 2 µL of 1 mM in DMSO injected): no egg hatching | Oviposition/Total ([1]; 2 µL of 1 mM in DMSO injected (2 nmol/tick), females that did not lay eggs considered dead): NO 0/13 | Larval Total Weight ([2]; 500 ppm): 60 ± 39 mg | reduction of the eclosion rate compared to vehicle ([2]; 500 ppm and 2000 ppm): 16% | Larval Total Weight ([2]; 2000 ppm): 63 ± 33 mg | % Inhibition at 100 µM HmTIM [3]: 0%
